Apparent affinities of Ab-14 variants for a coronavirus HR2 peptide

Values reported by Engelhart et al. 2022, doi:10.1038/s41597-022-01779-4 (FLAb copy).

Binding partner: SARS-CoV-2 spike HR2 peptide, sequence PDVDLGDISGINAS.

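Phage display of a naive human antibody library on the peptide gave the parent. In library AAYL50, one, two or three CDR residues were substituted; doubles and triples were drawn at random. In AlphaSeq, yeast of one mating type display the scFv and yeast of the other type display the target. Pairs that bind mate more often; barcode pairs of the diploids are counted by sequencing. The ratio of observed to expected reads was calibrated, replicate by replicate, on BCL2-family standards whose Kd was known from biolayer interferometry. Each pool was mated in three replicate cultures.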

Ab-14 is the parent antibody, in scFv form: VH, then three GGGGS repeats, then VL. The heavy chain is unchanged in all variants.
VH: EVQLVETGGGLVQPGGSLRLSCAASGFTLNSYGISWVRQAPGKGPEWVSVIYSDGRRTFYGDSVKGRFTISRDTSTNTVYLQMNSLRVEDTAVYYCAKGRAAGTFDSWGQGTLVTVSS
VL: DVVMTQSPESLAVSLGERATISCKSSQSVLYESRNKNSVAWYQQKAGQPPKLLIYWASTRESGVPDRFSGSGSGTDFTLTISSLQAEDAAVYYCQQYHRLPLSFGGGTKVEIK

Positions count from residue 1 of the parent VL; E32I puts I in place of E. Values are apparent Kd, the geometric mean of the replicates that gave a signal; lower means stronger binding. Where no diploid with the target was found in any replicate, the entry reads "not detected": below detection, most likely a poor binder, though not proof of it. Three control strains display no target. For library AAYL50, 18% of the pairings with them gave a signal, with a median of 15 µM and one signal in twenty below 970 nM, so weak values seen in few replicates may be background.

changes,Kd (apparent),detected
E32I Q96G R99V,18 µM,1/3
Y31K R60I E61K,130 µM,1/3
Y31V E32Y W56K,not detected,0/3
S26H S33R Y97E,not detected,0/3
N35T R60P E61F,not detected,0/3
V29I Q96S H98M,150 nM,3/3
W56P S58K L102K,not detected,0/3
S26F N35E L102K,not detected,0/3
S33K R34E E61S,2.2 nM,3/3
R34D N37K P101C,33 nM,1/3
S25W S26G Q95M,4.7 µM,1/3
L30Q A40R T59R,not detected,0/3
Q27D W56V Q95T,15 µM,1/3
V29N N35P N37W,5.1 µM,1/3
Q95V H98S S103A,not detected,0/3
T59P H98Y L102R,270 µM,1/3
Q27W Y31G R99T,3.5 nM,3/3
E32W N37I L100T,not detected,0/3
Q27E R34L N35P,6.5 nM,3/3
S28L V39M R60T,not detected,0/3
S25M W56F P101W,11 µM,3/3
Q27T V39M Q95H,25 nM,3/3
A57Q Q95H P101A,170 nM,3/3
S26R Q95D L100Q,290 nM,3/3
K24W S26P L100G,not detected,0/3
K24M Q27D N35K,8.1 µM,3/3
K24W N35Q R60K,2.1 µM,3/3
K24M R99M L102T,260 nM,3/3
V39S R99K L102G,100 µM,2/3
Y31R N35P E61I,400 nM,3/3
S25W Q96T H98I,5.2 nM,3/3
S38L A40I L100P,not detected,0/3
Q27R R34E K36R,not detected,0/3
S26E K36L R60V,1.6 µM,3/3
K24P S25D W56T,6.5 µM,2/3
S25Y L30G T59H,7.8 nM,3/3
S28M L30I K36A,47 nM,3/3
N35P R60C S62D,37 µM,1/3
N37V A40N Y97F,89 µM,1/3
S25H S33M R60W,not detected,0/3
Y31H V39Q R60I,12 µM,1/3
Y31K V39Y L100V,not detected,0/3
S25M V29T Q96V,240 nM,3/3
S25K S58R E61M,8.2 nM,3/3
K24N Q27K S33W,170 nM,3/3
V39H E61V R99E,14 µM,2/3
N37L S38R L102Y,not detected,0/3
N35G K36Q E61Q,4.0 nM,3/3
V39G S58E R60M,not detected,0/3
V39W A40F Q96S,28 µM,1/3
L30H R60V R99F,not detected,0/3
Q27I S33V Y97H,980 nM,1/3
S26D V39L R99P,not detected,0/3

4 of these entries, quoted again:

{"changes": "N35T R60P E61F", "Kd (apparent)": "not detected", "detected": "0/3"}
{"changes": "S28L V39M R60T", "Kd (apparent)": "not detected", "detected": "0/3"}
{"changes": "K24M R99M L102T", "Kd (apparent)": "260 nM", "detected": "3/3"}
{"changes": "W56P S58K L102K", "Kd (apparent)": "not detected", "detected": "0/3"}

In this assay the parent's reference entry averaged 4.4 nM; its copy inside this library read 48 nM.